Experimental data: US11745001B2, “Therapeutic bandage” (University of Connecticut, priority 2020, dated 2023)

Assay: kinetics of drug release from microneedles, epifluorescence microscopy with two fluorescent dyes
Description: FIG. 4A illustrates a microneedle base 44 showing the hollow channel 50. FIG. 4B illustrates the microneedle base 44 coupled to the rapid-dissolving tips 40, which include tattoo ink. In one embodiment, the therapeutic bandage 10 may be producing the microneedles 26 and then coupling the microneedles 26 to the bandage matrix 30. In some embodiments, the microneedles 26 may be integrally formed with a portion of the bandage matrix 30. The microneedles are produced by forming the base 44, with the microchannel 50, and loading the base […] with the second immunomodulatory compound. The tip 40 is then produced and loaded with the first immunomodulatory compound. The tip 40 is then coupled to the base 44 to seal the microchannel […]. To test the mechanical strength of the microneedles 26, the tips 40 were loaded with insoluble tattoo ink (FIG. 4B). The microneedles 26 were then applied to cultured human skin explants using a 1 Newton application force. […] FIG. 4E illustrates a longitudinal section of explanted human skin showing spacing of microneedle deposition in the dermal layer. The kinetics of drug release were then measured using epifluorescence microscopy and two fluorescent dyes.

**Q.** With BODIPY-vancomycin as the substance, how does the “time in which the tips dissolved and delivered the dye into the dermal layer of skin” value (dye loaded in rapid-dissolving tips 40, explanted human skin, FIG. 5 at A) read?
**A.** Its value is ≤ 30 min.

**Q.** What about the “detectability of burst release from the tip” value (one hour after bandage application) of the same substance?
**A.** The value was “no longer detectable”.
